Results as given in patent US6656911B2, “Serine protease inhibitors” (Cortech, Inc., priority 1994, dated 2003).

The chains behind the UniProt entries cited, without tags or fusion partners. Residues count along the entry.
UniProt P08246, 30-267 limits assumed: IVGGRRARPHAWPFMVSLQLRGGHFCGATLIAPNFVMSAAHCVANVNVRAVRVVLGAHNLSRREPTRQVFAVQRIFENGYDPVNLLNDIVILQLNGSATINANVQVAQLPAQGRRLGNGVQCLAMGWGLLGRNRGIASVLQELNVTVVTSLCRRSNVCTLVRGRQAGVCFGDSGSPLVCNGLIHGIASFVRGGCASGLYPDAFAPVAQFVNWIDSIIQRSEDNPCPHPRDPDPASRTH

Biological target: human neutrophil elastase (HNE) (Homo sapiens, UniProt P08246)
Test: HNE Ki of CE compounds, tested as described in WO 96/16080
Assay type: biochemical
Settings: read-out: HNE Ki

| Compound | Ki |
| --- | --- |
| CC(C)[C@H](NC(=O)[C@@H]1CCCN1C(=O)[C@@H](NC(=O)OCc1ccccc1)C(C)C)C(=O)c1noc(CCCc2ccccc2)n1 | 1.84 nM |
| CC(C)[C@H](NC(=O)[C@@H]1CCCN1C(=O)[C@@H](NC(=O)N1CCOCC1)C(C)C)C(=O)c1noc(CCN(C)C)n1 | 126 nM |
| CC(=O)N1CC(=O)N(CC(=O)N[C@H](C(=O)c2nnc(Cc3cccc(C)c3)o2)C(C)C)C(Cc2ccccc2)C1=O (stereo partly shown) | 51 nM |
| COc1cccc(Cc2nc(C(=O)[C@@H](NC(=O)[C@@H]3CCCN3C(=O)[C@@H](NC(=O)OCc3ccccc3)C(C)C)C(C)C)no2)c1 | 0.5 nM |
| CC(C)[C@H](NC(=O)[C@@H]1CCCN1C(=O)[C@@H](NC(=O)OCc1ccccc1)C(C)C)C(=O)c1noc(CCN(C)C)n1 | 12.4 nM |
| CC(C)[C@H](NC(=O)CN(Cc1ccccc1)C(=O)[C@@H](NC(=O)OCc1ccccc1)C(C)C)C(=O)c1noc(Cc2cccc(C(F)(F)F)c2)n1 | 0.98 nM |
| COc1ccc(C(=O)N[C@H](C(=O)N2CCC[C@H]2C(=O)N[C@H](C(=O)c2noc(Cc3cccc(C(F)(F)F)c3)n2)C(C)C)C(C)C)cc1 | 0.13 nM |
| CC(C)[C@H](NC(=O)[C@@H]1CCCN1C(=O)[C@@H](NC(=O)OCc1ccccc1)C(C)C)C(=O)c1noc(CC23CC4CC(CC(C4)C2)C3)n1 | 1.5 nM |
| CC(C)[C@H](NC(=O)[C@@H]1CCCN1C(=O)[C@@H](NC(=O)OCc1ccccc1)C(C)C)C(=O)c1noc(CCN2CCOCC2)n1 | 6.3 nM |
| COC(=O)CCc1nc(C(=O)[C@@H](NC(=O)[C@@H]2CCCN2C(=O)[C@@H](NC(=O)OCc2ccccc2)C(C)C)C(C)C)no1 | 7.7 nM |
| CC(C)[C@H](NC(=O)[C@@H]1CCCN1C(=O)[C@@H](NC(=O)N1CCOCC1)C(C)C)C(=O)c1noc(CCN2CCOCC2)n1 | 85 nM |
| Cc1cccc(Cc2nnc(C(=O)C(C)(C)NC(=O)[C@@H]3CCCN3C(=O)[C@@H](NC(=O)OCc3ccccc3)C(C)C)o2)c1 | 73 nM |
| CC(C)[C@H](NC(=O)[C@@H]1CCCN1C(=O)[C@@H](NC(=O)OCc1ccccc1)C(C)C)C(=O)c1noc(Cc2cccc(C(F)(F)F)c2)n1 | 0.2 nM |
